Assay results: ChEMBL document CHEMBL1132115, “Discovery of the first potent and selective small molecule opioid receptor-like (ORL1) antagonist: 1-[(3R,4R)-1-cyclooctylmethyl-3- hydroxymethyl-4-piperidyl]-3-ethyl-1, 3-dihydro-2H-benzimidazol-2-one (J-113397)” (1999)
This is a selection: effects in other tests are not listed, and their absence says nothing.

Sequences of proteins named here, by UniProt entry; tags and fusion partners are left off.
UniProt P41146, whole entry: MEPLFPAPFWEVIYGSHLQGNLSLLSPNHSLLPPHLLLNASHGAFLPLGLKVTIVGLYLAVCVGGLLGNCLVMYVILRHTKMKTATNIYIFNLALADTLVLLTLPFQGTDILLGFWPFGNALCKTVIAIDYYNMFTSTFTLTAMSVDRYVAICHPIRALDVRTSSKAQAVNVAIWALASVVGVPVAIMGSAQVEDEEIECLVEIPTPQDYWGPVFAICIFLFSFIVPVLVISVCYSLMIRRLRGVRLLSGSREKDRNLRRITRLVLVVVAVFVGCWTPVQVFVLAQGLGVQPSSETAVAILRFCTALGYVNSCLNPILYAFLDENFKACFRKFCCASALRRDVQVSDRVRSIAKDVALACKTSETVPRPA
UniProt P41143, whole entry: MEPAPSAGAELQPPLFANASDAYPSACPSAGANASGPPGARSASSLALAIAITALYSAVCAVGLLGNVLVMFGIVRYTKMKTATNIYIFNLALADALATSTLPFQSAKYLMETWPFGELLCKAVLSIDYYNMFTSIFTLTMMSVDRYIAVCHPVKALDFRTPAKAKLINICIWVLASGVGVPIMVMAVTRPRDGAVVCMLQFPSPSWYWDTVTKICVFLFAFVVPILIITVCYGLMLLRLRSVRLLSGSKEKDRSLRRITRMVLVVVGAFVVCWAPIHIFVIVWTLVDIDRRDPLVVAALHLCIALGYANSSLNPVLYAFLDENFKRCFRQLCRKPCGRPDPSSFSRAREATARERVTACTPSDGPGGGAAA
UniProt P35372, whole entry: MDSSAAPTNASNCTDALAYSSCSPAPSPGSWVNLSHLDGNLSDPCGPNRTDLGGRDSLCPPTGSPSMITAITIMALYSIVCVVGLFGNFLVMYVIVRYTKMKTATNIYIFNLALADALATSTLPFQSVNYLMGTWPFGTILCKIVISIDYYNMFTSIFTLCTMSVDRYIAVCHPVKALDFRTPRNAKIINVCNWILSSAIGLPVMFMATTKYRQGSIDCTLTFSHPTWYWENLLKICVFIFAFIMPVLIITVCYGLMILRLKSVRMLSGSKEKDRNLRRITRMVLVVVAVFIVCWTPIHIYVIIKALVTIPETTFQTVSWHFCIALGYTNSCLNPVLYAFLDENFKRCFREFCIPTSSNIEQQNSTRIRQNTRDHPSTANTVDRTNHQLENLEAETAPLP
UniProt P41145, whole entry: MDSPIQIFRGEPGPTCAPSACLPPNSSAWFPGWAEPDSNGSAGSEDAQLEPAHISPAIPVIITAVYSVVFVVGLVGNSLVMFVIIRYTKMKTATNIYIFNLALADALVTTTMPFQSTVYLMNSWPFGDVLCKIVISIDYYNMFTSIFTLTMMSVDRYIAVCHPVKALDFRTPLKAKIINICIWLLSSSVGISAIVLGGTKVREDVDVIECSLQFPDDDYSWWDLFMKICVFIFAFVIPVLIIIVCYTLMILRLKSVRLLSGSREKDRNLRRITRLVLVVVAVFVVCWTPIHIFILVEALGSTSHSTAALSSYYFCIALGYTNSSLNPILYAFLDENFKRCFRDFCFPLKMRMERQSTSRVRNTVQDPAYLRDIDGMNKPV

Key:
Nociceptin receptor [1] = target: T1, Nociceptin receptor (Homo sapiens, UniProt P41146); test: Inhibition of [125I]Tyr14-nociceptin binding to human Opioid receptor like 1 (opioid receptor like 1) in CHO cells
[2] = target: T2, Delta-type opioid receptor (Homo sapiens, UniProt P41143); test: Inhibition of [3H][D-Ala2,D-Leu5]enkephalin binding to human Opioid receptor delta 1 in CHO cells
Nociceptin receptor [3] = target: T1, Nociceptin receptor; test: Antagonistic activity measured by GTPgammaS binding against Opioid receptor like 1 in CHO cells
Nociceptin receptor [4] = target: T1, Nociceptin receptor; test: Agonistic activity measured by GTPgammaS binding against Opioid receptor like 1 in CHO cells.
Mu-type opioid receptor = Mu-type opioid receptor (Homo sapiens, UniProt P35372); test: Inhibition of [3H]diprenorphine binding to human Opioid receptor mu 1 in CHO cells
[5] = target: T3, Kappa-type opioid receptor (Homo sapiens, UniProt P41145); test: Inhibition of [3H]U-69593 binding to human Opioid receptor kappa 1 in CHO cells
[6] = target: T3, Kappa-type opioid receptor; test: Binding affinity in CHO cells stably expressing cloned human Opioid receptor kappa 1 by displacing radioligand [3H]U-69593
[7] = target: T2, Delta-type opioid receptor; test: Binding affinity in CHO cells stably expressing cloned human Opioid receptor delta 1 by displacing radioligand [3H][D-Ala2,D-Leu5]enkephalin
Nociceptin receptor [8] = target: T1, Nociceptin receptor; test: Antagonistic activity against nociceptin produced [35S]GTP-gamma-S, binding to Opioid receptor like 1 expressed in CHO cells
Nociceptin receptor [9] = target: T1, Nociceptin receptor; test: Binding affinity in CHO cells stably expressing cloned human Opioid receptor like 1 by displacing radioligand [125I]Tyr14-nociceptin
Nociceptin receptor [10] = target: T1, Nociceptin receptor; test: Agonistic activity against nociceptin produced GTPgammaS binding to Opioid receptor like 1 expressed in CHO cells
Nociceptin receptor [11] = target: T1, Nociceptin receptor; test: Agonistic activity measured by GTPgammaS binding against Opioid receptor like 1 in CHO cells

Structure (SMILES) | IC50 (Nociceptin receptor [1]) | IC50 [2] | IC50 (Nociceptin receptor [3]) | EC50 (Nociceptin receptor [4]) | IC50 (Mu-type opioid receptor) | IC50 [5] | IC50 [6] | IC50 [7] | IC50 (Nociceptin receptor [8]) | IC50 (Nociceptin receptor [9]) | EC50 (Nociceptin receptor [10]) | EC50 (Nociceptin receptor [11])
O=c1[nH]c2ccccc2n1C1CCN(CC2CCCCCCC2)CC1 | 6.8 nM | > 10000 nM | 20 nM | > 10000 nM | 780 nM | 12 nM |  |  |  |  |  | 
CC(c1ccccc1Cl)N1CCC(n2c(O)nc3ccccc32)CC1 (configuration not stated) |  |  |  |  |  |  | 32 nM | 1900 nM | > 10000 nM | 5.9 nM | 25 nM | 
CCn1c(=O)n(C2CCN(CC3CCCCCCC3)CC2)c2ccccc21 | 6.8 nM | > 10000 nM | 20 nM |  | 950 nM | 440 nM |  |  |  |  |  | > 10000 nM
O=c1[nH]c2ccccc2n1C1CCN(Cc2ccccc2)CC1 |  |  |  |  |  |  | 110 nM | > 10000 nM | > 10000 nM | 200 nM | 6900 nM | 
